For one assay, the target named is NTS1R (Homo sapiens, UniProt P30989). Description: flow cytometric association and dissociation kinetics at HT-29 cells. Format: binding. The following applies: K d(kin) = k off/k on; ± propagated error; read-out: K d(kin) from k off and k on (monophasic association). A general note: In flow cytometry, cells or beads pass a laser one at a time.
The target of assay [1] is neurotensin receptor 1 (NTS1R), endogenous in HT-29 colon carcinoma cells (human (endogenous in HT-29)) (UniProt P30989).

Amino acid sequences for entries named in this document (tags omitted).
UniProt P30989, whole entry: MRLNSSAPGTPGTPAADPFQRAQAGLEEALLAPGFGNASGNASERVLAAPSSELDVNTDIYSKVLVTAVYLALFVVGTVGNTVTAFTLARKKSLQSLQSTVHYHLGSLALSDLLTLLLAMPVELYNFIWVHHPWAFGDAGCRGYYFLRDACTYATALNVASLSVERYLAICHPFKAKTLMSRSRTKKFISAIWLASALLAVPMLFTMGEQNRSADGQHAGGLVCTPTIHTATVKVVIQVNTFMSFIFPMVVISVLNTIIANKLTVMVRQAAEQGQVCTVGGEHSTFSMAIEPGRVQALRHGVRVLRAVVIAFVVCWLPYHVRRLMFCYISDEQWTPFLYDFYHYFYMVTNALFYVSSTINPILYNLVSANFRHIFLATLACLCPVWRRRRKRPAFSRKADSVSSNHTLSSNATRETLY

As for `CC[C@H](C)[C@H](NC(=O)[C@@H](NC(=O)[C@@H]1CCCN1C(=O)[C@H](CCCNC(=N)N)NC(=O)[C@H](CCCNC(=N)NC(=O)NCCCCNC(=O)CCCCCN1\C(=C/C=C/C=C/C2=[N+](CCCCS(=O)(=O)[O-])c3ccccc3C2(C)C)C(C)(C)c2cc(S(=O)(=O)O)ccc21)NC)C(C)(C)c1ccc(O)cc1)C(=O)N[C@@H](C[Si](C)(C)C)C(=O)O` [compound 21, N ^α-Methyl-N ^ω-{[4-(N-{6-3H-[2-(5–3H-(1-(4-sulfonatobutyl)-3,3-dimethyl)indol-2-ylidenepent-1,3-dienyl)-3,3-dimethyl-5-sulfo]indol-1-ium-1-yl}hexanoyl)-aminobutyl]aminocarbonyl}Arg-Arg-Pro-β,β-dimethyl-L-Tyr-Ile-β-trimethylsilyl-Ala Tris(hydrotrifluoroacetate)], the Kd at NTS1R was 0.03 ± 0.007 nM. On to NT(8–13) (peptide), for which, in assay [1], the EC50, Fura-2 Ca^2+ assay at HT-29 cells (NTS1R agonism) was 1.2 nM and the pEC50, Fura-2 Ca^2+ assay at HT-29 cells (NTS1R agonism) is 8.96.

These data come from PMC12481580 (Journal of Medicinal Chemistry, 2025).
